Measured values from article PMC7179994 (2019).

By UniProt entry, the sequences of proteins in these tests, tags left out. Where a name states a change or a piece, a line headed by the entry shows the natural chain unless it says otherwise.
UniProt P33151: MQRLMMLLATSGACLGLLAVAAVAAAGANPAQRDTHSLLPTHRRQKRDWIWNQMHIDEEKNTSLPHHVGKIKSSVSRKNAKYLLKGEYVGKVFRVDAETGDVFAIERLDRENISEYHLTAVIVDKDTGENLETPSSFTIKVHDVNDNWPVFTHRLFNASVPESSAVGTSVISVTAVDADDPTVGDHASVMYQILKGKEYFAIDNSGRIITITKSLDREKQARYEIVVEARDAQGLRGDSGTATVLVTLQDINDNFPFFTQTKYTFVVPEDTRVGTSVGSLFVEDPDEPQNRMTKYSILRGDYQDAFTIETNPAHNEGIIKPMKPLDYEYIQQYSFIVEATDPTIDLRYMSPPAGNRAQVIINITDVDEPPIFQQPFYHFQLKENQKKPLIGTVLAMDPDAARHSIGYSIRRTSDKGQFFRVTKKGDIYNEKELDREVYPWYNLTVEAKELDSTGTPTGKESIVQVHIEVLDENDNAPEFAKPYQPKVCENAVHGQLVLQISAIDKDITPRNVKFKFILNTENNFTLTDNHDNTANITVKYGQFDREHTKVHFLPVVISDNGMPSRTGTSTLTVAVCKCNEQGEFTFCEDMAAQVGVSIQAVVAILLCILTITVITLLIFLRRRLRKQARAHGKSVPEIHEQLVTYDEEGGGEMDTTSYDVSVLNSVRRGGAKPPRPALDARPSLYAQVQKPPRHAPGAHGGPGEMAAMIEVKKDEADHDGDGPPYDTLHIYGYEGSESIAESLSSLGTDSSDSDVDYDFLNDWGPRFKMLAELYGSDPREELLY

Target: T1, VE-cadherin VE-cad(1-5), five extracellular domains (Homo sapiens, UniProt P33151)
T1 chain: MQRLM
Experiment: SPR

Kd: 97 nM
B1: NDSK-II fragment of fibrin NDSK-II (central region) (protein)
chain 1: ADSGEGDFLAEGGGVRGPRVVERHQSACKDSDWPFCSDEDWNYKCPSGCRMKGLIDEVNQDFTNRINKLKNSLFEYQKNNKDSHSLTTNIMEILRGDFSSANNRDNTYNRVSEDLRSRIEVLKRKVIEKVQHIQLLQKNVRAQLVDMKRLEVDIDIKIRSCRGSCSRALAREVDLKDYEDQQKQLEQVIAKDLLPSRDRQHLPLIKMKPVPDLVPGNFKSQLQKVPPEWKALTDMPQMRMELERPGGNEITRGGSTSYGTGSETESPRNPSSAGSWNSGSSGPGSTGNRNPGSSGTGGTATWKPGSSGPGSTGSWNSGSSGTGSTGNQNPGSPRPGSTGTWNPGSSERGSAGHWTSESSVSGSTGQWHSESGSFRPDSPGSGNARPNNPDWGTFEEVSGNVSPGTRREYHTEKLVTSKGDKELRTGKEKVTSGSTTTTRRSCSKTVTKTVIGPDGHKEVTKEVVTSEDGSDCPEAMDLGTLSGIGTLDGFRHRHPDEAAFFDTASTGKTFPGFFSPMLGEFVSETESRGSESGIFTNTKESSSHHPGIAEFPSRGKSSSYSKQFTSSTSYNRGDSTFESKSYKMADEAGSEADHEGTHSTKRGHAKSRPVRDCDDVLQTHPSGTQSGIFNIKLPGSSKIFSVYCDQETSLGGWLLIQQRMDGSLNFNRTWQDYKRGFGSLNDEGEGEFWLGNDYLHLLTQRGSVLRVELEDWAGNEAYAEYHFRVGSEAEGYALQVSSYEGTAGDALIEGSVEEGAEYTSHNNMQFSTFDRDADQWEENCAEVYGGGWWYNNCQAANLNGIYYPGGSYDPRNNSPYEIENGVVWVSFRGADYSLRAVRMKIRPLVTQ
chain 2: QGVNDNEEGFFSARGHRPLDKKREEAPSLRPAPPPISGGGYRARPAKAAATQKKVERKAPDAGGCLHADPDLGVLCPTGCQLQEALLQQERPIRNSVDELNNNVEAVSQTSSSSFQYMYLLKDLWQKRQKQVKDNENVVNEYSSELEKHQLYIDETVNSNIPTNLRVLRSILENLRSKIQKLESDVSAQMEYCRTPCTVSCNIPVVSGKECEEIIRKGGETSEMYLIQPDSSVKPYRVYCDMNTENGGWTVIQNRQDGSVDFGRKWDPYKQGFGNVATNTDGKNYCGLPGEYWLGNDKISQLTRMGPTELLIEMEDWKGDKVKAHYGGFTVQNEANKYQISVNKYRGTAGNALMDGASQLMGENRTMTIHNGMFFSTYDRDNDGWLTSDPRKQCSKEDGGGWWYNRCHAANPNGRYYWGGQYTWDMAKHGTDDGVVWMNWKGSWYSMRKMSMKIRPFFPQQ
chain 3: YVATRDNCCILDERFGSYCPTTCGIADFLSTYQTKVDKDLQSLEDILHQVENKTSEVKQLIKAIQLTYNPDESSKPNMIDAATLKSRKMLEEIMKYEASILTHDSSIRYLQEIYNSNNQKIVNLKEKVAQLEAQCQEPCKDTVQIHDITGKDCQDIANKGAKQSGLYFIKPLKANQQFLVYCEIDGSGNGWTVFQKRLDGSVDFKKNWIQYKEGFGHLSPTGTTEFWLGNEKIHLISTQSAIPYALRVELEDWNGRTSTADYAMFKVGPEADKYRLTYAYFAGGDAGDAFDGFDFGDDPSDKFFTSHNGMQFSTWDNDNDKFEGNCAEQDGSGWWMNKCHAGHLNGVYYQGGTYSKASTPNGYDNGIIWATWKTRWYSMKKTTMKIIPFNRLTIGEGQQHHLGGAKQVRPEHPAETEYDSLYPEDDL
